Assay results reported in patent US11661410B2 (GLOBAL BLOOD THERAPEUTICS, INC., priority 2017, dated 2023).

Biological target: serotonin 5HT2A receptor (Homo sapiens (Human), UniProt P28223)
Assay: biochemical
Details: compound at 10 μM, in duplicate; ligand binding to cell membranes; read-out: Serotonin 5HT2A percent inhibition

Row | SMILES | inhibition at 10 µM [%]
1 | COc1cc2c(NC(C)C)c3c(nc2cc1OCCCN1CCCC1)CCC3 [drawing 590] | 98
2 | CCNc1c2c(nc3cc(OCCCN4CCCC4)c(OC)cc13)CCC2 [drawing 591] | 101
3 | COc1cc2nc3c(c(NCC4CNC4)c2cc1OC)CCC3 [drawing 593] | 54
4 | COc1cc2nc3c(c(N[C@@H]4CCCNC4)c2cc1OC)CCC3 [drawing 594] | 40
5 | COc1cc2nc3c(c(NC4CCNCC4)c2cc1OC)CCC3 [drawing 595] | 38
6 | COc1cc2nc3c(c(N[C@H]4CNC[C@@H](C)C4)c2cc1OC)CCC3 [drawing 596] | 27
7 | COc1cc2nc3c(c(N[C@@H]4CCCCNC4)c2cc1OC)CCC3 [drawing 597] | 30

Biological target: norepinephrine transporter (NET) (Homo sapiens (Human), UniProt P23975)
Assay: biochemical
Format: binding
Details: compound at 10 μM, in duplicate; membranes from cells expressing the transporter; read-out: Norepinephrine Transporter (NET) percent inhibition

Row | SMILES | inhibition at 10 µM [%]
8 | COc1cc2c(NC(C)C)c3c(nc2cc1OCCCN1CCCC1)CCC3 [drawing 590] | 84
9 | CCNc1c2c(nc3cc(OCCCN4CCCC4)c(OC)cc13)CCC2 [drawing 591] | 84
10 | COc1cc2nc3c(c(NCC4CNC4)c2cc1OC)CCC3 [drawing 593] | 57
11 | COc1cc2nc3c(c(N[C@@H]4CCCNC4)c2cc1OC)CCC3 [drawing 594] | 72
12 | COc1cc2nc3c(c(NC4CCNCC4)c2cc1OC)CCC3 [drawing 595] | 57
13 | COc1cc2nc3c(c(N[C@H]4CNC[C@@H](C)C4)c2cc1OC)CCC3 [drawing 596] | 33
14 | COc1cc2nc3c(c(N[C@@H]4CCCCNC4)c2cc1OC)CCC3 [drawing 597] | 65
